Data as given in US20250041438A1, “ANTIBODY-DRUG CONJUGATE” (NOVELTY NOBILITY INC., priority 2022, published 2025).

Tested on: GIST-T1 cells
Test: In vivo efficacy against GIST, GIST-T1 cell xenograft model
Conditions: imatinib 100 mg/kg group

## Cc1ccc(NC(=O)c2ccc(CN3CCN(C)CC3)cc2)cc1Nc1nccc(-c2cccnc2)n1
  mortality: 1 case died on day 91
